Values quoted from earlier work as cited in patent publication US5935954A, “Compounds with improved multi-drug resistance activity” (Vertex Pharmaceuticals Incorporated, priority 1997, dated 1999).

Settings: patients; at concentrations needed for chemosensitization (CsA); cited from earlier work

For “11-methyl-leucine cyclosporin [11-met-leu CsA]”, the immunosuppression is given as “do not exert an immunosuppressive effect”.
